Results published in ChEMBL document CHEMBL3046459, “Structural insights for 3H-1, -2, -4 triazolinones as angiotensin II receptor antagonists using QSAR techniques” (Med Chem Res, 2010).

Protein sequences, listed by entry. Tags and fused reporters are not part of them.
UniProt P34976, whole entry: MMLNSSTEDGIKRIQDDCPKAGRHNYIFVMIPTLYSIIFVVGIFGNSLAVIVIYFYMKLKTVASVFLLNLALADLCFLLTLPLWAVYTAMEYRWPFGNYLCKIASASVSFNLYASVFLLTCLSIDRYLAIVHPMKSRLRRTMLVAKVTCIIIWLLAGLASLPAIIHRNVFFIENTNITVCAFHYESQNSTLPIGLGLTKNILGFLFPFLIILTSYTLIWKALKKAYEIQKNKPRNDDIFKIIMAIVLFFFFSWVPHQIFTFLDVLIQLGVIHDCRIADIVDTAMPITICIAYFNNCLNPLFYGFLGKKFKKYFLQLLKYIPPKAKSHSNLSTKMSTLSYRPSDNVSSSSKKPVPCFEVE

Molecular target: Type-1 angiotensin II receptor (Oryctolagus cuniculus) (UniProt P34976)
Experiment: Antagonist activity at angiotensin 2 type-1 receptor in Oryctolagus cuniculus (rabbit) aorta in presence of bovine serum albumin
Design: unit not given here

## CCCCc1nn(-c2ccccc2)c(=O)n1Cc1ccc(-c2ccccc2-c2nn[nH]n2)cc1
  logIC50: 1.34
